# Measurements from PubChem BioAssay AID593 (National Center for Advancing Translational Sciences (NCATS), 2007).
# The list shows a part of the results, in another mix than the full data. Records with an inconclusive call do not appear. Active and inactive are the calls of the source. No stated cut-off is given here; in the data, active means max fluorescein-equivalent concentration above about 10 nM; inconclusive means between about 1.1 nM and that limit; inactive means weaker than that.
# Experiment: qHTS Assay for Spectroscopic Profiling in Fluorescein Spectral Region
# Details: Compound autofluorescence, 480/540 nm, fluorescein-equivalent
# Description: NIH Molecular Libraries Screening Centers Network [MLSCN]
# NIH Chemical Genomics Center [NCGC]
# Occasionally, the artifactual effect may originate from the compound's own spectral or other biophysical properties which generally tend to track its assay concentration. Pre-screening/profiling the library with respect to the compounds' spectral properties should help one exclude false positives early on. While the most informative fluorescent profiling data set is obtained by performing a full excitation and emission scan of each well by using a monochromator-based plate reader, such an approach is practical only on a very limited scale as scanning each well requires long time. An alternative approach, applied here, is to perform plate reader scans using selected excitation and emission wavelength pairs to generate a multidimensional relational database that correlates compound concentration and the respective relative fluorescence intensity at a given wavelength set. A standard curve of fluorescein present on each plate as six-point concentration series, was used to compute a normalized fluorescence response, termed dye-equivalent concentration, for each compound at each concentration.
# NCGC Assay Protocol Summary:
# 100 mM Tris buffer, pH 8.0
# The wells in columns 1 through 4 of a Kalypsys polypropylene 1536-well compound plate were filled with standard solutions of fluorophore corresponding to the spectral region of interest. Solutions of Fluorescein were placed in the following wells: Q1, R1: 3 mM, Q2, R2: 300 uM, Q3, R3: 30 uM, Q4, R4: zero (DMSO), S1, T1: 3 uM, S2, T2: 900 nM, S3, T3: 300 nM, S4, T4: zero (DMSO).
# Six uL of buffer were dispensed to 1536-well Greiner black plates. Compounds and dye standards (23 nL) were transferred via Kalypsys PinTool. The plates were incubated for 15 min at room temperature, and then read on ViewLux (Perkin-Elmer) High-throughput CCD imager using 480 nm and 540 nm excitation and emission filter set.
# Keywords: NIH Roadmap, MLSCN, MLI, MLSMR, qHTS, NCGC, Fluorescein, Fluorescent Profiling.
row,SMILES,outcome
1,CCN(CC)CC(O)COC(=O)C(O)(c1ccccc1)C1CCCCC1 (stereo not drawn),inactive
2,COc1ccccc1OP(C)(=O)Nc1c(C)n(C)n(-c2ccccc2)c1=O (stereo not drawn),inactive
3,CCc1nc2c(n1)c1c(non1O)c1c2no[n+]1[O-],inactive
4,O=C(CO)Nc1ccc([As](=O)(O)O)cc1,inactive
5,COc1ccccc1OP(C)(=O)Nc1ccc(C)c(C)c1 (stereo not drawn),inactive
6,Cc1nc2ccc3ccccc3c2o1.O=[N+]([O-])c1cc([N+](=O)[O-])c(O)c([N+](=O)[O-])c1,inactive
7,C(Cc1nn[nH]n1)c1nn[nH]n1,inactive
8,O=P1(Nc2nc3ccc(Cl)cc3s2)COc2ccccc2O1 (stereo not drawn),inactive
9,CP(=O)(Nc1ccccc1F)Oc1ccccc1 (stereo not drawn),inactive
10,COC(=O)c1cc2c(s1)N=C(c1ccccc1)N(C)P2(=O)N1CCOCC1 (stereo not drawn),inactive
11,CN(C)CCOC(=O)C(O)(c1ccccc1)C1CCCCC1 (stereo not drawn),inactive
12,[N-]=[N+]=Nc1ccc([As](=O)(O)O)cc1,inactive
13,O=C(OC1CN2CCC1CC2)c1cccc(Cl)c1 (stereo not drawn),inactive
14,c1nnnn1CCn1cnnn1,inactive
15,C[C@@H](O)COc1ccc([As](=O)(O)O)cc1N,inactive
16,NNC(NN)NN.n1nc(-c2nn[nH]n2)n[nH]1,inactive
17,CN(CCCl)Cc1cc(Cl)c(NC2=NCCN2)c(Cl)c1,inactive

row,SMILES,outcome
1,Clc1n[nH]nc1-c1nn[nH][15n]1,inactive
2,Cc1nc2ccc3ccccc3c2s1.O=[N+]([O-])c1cc([N+](=O)[O-])c(O)c([N+](=O)[O-])c1,inactive
3,CN(C(=O)Cc1ccc(Cl)c(Cl)c1)[C@@H]1CCCC[C@H]1N1CCCC1,inactive
4,O=P1(Nc2ncccn2)COc2ccccc2OC1,inactive
5,Cc1ccc(OCC(=O)OC2CN3CCC2CC3)cc1 (stereo not drawn),inactive
6,O=P(Nc1nccs1)(c1ccccc1)c1nc2ccccc2s1 (stereo not drawn),inactive
7,O=[As](O)(O)c1ccc([As](=O)(O)O)cc1,inactive
8,NC(=O)Nc1ccc([As](=O)(O)O)cc1,inactive
9,NS(=O)(=O)Cc1ccc([As](=O)(O)O)cc1,inactive
10,O=C(CC(=O)c1ccccc1)O[C@H]1CN2CCC1CC2,inactive
11,COc1ccccc1OP(C)(=O)Nc1ccc(C)cc1 (stereo not drawn),inactive
12,O=[As]c1ccc(S(=O)(=O)NCCO)cc1 (stereo not drawn),inactive
13,N1=C(c2nnc(-c3nn[nH]n3)nn2)NNN1,inactive
14,CP(=O)(NC(=O)Nc1ccccc1)Oc1ccccc1 (stereo not drawn),inactive
15,O=C(COc1ccccc1)OC1CN2CCC1CC2 (stereo not drawn),inactive
16,O=C(O)[C@@H](O)c1ccc([As](=O)(O)O)cc1,inactive
